In PubChem BioAssay AID540276 (National Center for Advancing Translational Sciences (NCATS), 2011):
This is a selection; strong and weak results do not stand in their true shares. Some tests of the compounds listed are not included; inactive here does not mean inactive elsewhere. Inconclusive results are not listed. Where a call stands in place of a potency, no number is given. Activity calls are given as the source filed them. The call rests on the fitted dose curve; tested in HEK293 cells.
Potency means the concentration at half of the fitted maximal effect.

Experiment: qHTS for inhibitors of binding or entry into cells for Marburg Virus
Details: Marburg virus pseudotyped entry inhibition, cell reporter; series mostly up to 37.8 µM
For `O=C(NCC1(N2CCCCC2)CCCCC1)c1cccc(Cl)c1`, the Potency was active: 2000 nM. With `CC(C)N1C(=O)CC2(CCN(CCOC(=O)C(O)(c3ccccc3)c3ccccc3)CC2)C1=O` the Potency was “inactive”.
